# In patent US8598314B2 (priority 2007, dated 2013):
# By UniProt entry, the sequences of proteins in these tests, tags left out.
# UniProt P27487, whole entry, species assumed: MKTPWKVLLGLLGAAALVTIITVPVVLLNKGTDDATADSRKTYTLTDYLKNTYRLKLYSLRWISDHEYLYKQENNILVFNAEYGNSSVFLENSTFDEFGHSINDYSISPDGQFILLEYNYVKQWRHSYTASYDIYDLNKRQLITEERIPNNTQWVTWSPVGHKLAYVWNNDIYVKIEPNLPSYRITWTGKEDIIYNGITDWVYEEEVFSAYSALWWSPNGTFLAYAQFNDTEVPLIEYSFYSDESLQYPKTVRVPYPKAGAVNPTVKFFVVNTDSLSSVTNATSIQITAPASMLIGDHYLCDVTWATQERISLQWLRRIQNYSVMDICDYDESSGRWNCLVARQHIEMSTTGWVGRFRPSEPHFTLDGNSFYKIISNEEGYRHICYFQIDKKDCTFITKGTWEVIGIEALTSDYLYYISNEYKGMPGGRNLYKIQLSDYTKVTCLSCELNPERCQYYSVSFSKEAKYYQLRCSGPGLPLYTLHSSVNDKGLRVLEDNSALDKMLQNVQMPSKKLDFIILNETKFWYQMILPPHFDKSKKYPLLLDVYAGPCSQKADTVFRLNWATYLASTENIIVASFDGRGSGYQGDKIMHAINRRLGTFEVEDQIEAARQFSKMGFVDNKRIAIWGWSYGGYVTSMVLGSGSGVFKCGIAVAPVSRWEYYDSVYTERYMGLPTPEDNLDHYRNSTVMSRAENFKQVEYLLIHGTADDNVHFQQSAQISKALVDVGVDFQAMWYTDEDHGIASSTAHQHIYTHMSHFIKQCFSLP
# Read-outs that look alike come from different tables or passages of the source.
# Experiments:
# [1] = biological target: T1, Recombinant DPP-IV (Homo sapiens, UniProt P27487); set-up: purchased Chemicon International, Inc; settings: read-out: DPP-IV IC50, published value; Leiting et al. (2003); cited from earlier work
# [2] = biological target: T1, Recombinant DPP-IV; test: DPP-IV inhibition assay, chromogenic substrate H-Gly-Pro-pNA; type: biochemical; set-up: purchased Chemicon International, Inc; settings: positive control
structure (smiles),measurement,setting,value
"CC[C@H](C)[C@H](N)C(=O)N1CCC[C@H]1C(=O)N[C@H](C(=O)O)[C@@H](C)CC [Diprotin A, Ile-Pro-Ile]",IC50,[1],3.5 µM
same,IC50,[2],5.1 µM
